Literature values, collected in patent publication US20040171543A1, “Matrix metalloproteinase inhibitors and methods for identification of lead compounds” (priority 2002, published 2004).

Sequences of proteins named here, by UniProt entry; tags and fusion partners are left off. Residues count along the entry.
UniProt P14780, 94-707: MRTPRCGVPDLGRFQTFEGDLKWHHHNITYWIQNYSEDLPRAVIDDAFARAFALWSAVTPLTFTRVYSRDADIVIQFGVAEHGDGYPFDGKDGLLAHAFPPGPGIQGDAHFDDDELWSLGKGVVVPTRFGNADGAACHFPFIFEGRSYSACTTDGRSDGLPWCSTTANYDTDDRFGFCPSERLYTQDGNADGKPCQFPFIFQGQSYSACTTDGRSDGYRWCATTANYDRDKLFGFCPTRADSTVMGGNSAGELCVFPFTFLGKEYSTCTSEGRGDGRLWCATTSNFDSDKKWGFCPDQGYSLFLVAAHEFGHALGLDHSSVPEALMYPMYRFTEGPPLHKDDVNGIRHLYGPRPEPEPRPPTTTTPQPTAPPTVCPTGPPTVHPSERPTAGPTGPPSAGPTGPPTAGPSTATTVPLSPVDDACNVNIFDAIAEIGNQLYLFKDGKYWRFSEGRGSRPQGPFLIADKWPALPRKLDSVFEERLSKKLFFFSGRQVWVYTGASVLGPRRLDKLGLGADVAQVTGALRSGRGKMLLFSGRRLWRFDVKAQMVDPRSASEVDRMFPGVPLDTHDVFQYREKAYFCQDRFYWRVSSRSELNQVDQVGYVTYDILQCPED
UniProt P78536, 215-824: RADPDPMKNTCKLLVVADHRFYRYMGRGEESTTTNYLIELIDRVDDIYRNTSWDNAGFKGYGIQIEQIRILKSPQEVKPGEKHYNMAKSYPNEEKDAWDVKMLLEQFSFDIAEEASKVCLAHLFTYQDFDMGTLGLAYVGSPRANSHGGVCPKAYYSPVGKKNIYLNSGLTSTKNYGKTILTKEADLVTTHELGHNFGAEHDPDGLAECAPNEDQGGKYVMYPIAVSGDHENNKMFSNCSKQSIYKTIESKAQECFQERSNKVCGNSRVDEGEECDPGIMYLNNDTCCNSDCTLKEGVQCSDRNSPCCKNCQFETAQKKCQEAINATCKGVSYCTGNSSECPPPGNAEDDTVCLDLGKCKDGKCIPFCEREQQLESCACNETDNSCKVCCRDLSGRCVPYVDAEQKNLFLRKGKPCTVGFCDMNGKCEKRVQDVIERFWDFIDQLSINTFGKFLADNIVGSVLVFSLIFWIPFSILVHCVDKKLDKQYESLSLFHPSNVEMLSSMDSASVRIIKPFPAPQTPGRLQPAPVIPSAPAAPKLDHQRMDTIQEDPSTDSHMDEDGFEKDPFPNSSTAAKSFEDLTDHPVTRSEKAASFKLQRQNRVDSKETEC

What was measured:
Conditions in all cases: MMP-13 selective compound, Chen et al.; cited from earlier work
[1] = target: T1, MMP-1 (Homo sapiens, UniProt P03956)
T1 sequence (P03956 100-469): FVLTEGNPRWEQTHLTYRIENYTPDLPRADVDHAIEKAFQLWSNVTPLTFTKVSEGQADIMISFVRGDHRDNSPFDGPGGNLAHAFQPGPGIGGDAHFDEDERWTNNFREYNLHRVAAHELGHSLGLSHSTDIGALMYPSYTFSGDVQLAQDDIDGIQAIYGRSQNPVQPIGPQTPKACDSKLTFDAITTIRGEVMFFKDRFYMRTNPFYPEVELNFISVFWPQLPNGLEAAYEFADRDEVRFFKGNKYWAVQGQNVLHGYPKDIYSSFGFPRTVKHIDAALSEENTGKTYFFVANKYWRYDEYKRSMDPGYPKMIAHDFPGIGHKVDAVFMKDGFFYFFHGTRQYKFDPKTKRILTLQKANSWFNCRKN

[2] = target: MMP-9 (Homo sapiens, UniProt P14780)
[3] = target: TACE (Homo sapiens, UniProt P78536)

## Cc1cc(C)c(N(Cc2ccccc2)S(=O)(=O)c2ccc(OCCNC(=O)c3cc4ccccc4o3)cc2)c(C(=O)NO)c1 [WAY-170523]
[1]
  Selectivity against MMP-1: > 5800 fold
[2]
  Selectivity against MMP-9: 56 fold
[3]
  Selectivity against TACE: 500 fold
